These are literature values, as cited in PMC3867503, “Structure-Activity Relationships of Benzbromarone Metabolites and Derivatives as EYA Inhibitory Anti-Angiogenic Agents” (PLoS ONE, 2013).

pIC50: −log10 of the molar value.

The data set has as its target T1, recombinant human EYA3 (Homo sapiens, UniProt Q99504).
T1 construct: a splice variant of Q99504 corresponding to isoform 2 and missing residues 1 - 126; made in house
T1 sequence (Q99504 1-447 isoform Q99504-2): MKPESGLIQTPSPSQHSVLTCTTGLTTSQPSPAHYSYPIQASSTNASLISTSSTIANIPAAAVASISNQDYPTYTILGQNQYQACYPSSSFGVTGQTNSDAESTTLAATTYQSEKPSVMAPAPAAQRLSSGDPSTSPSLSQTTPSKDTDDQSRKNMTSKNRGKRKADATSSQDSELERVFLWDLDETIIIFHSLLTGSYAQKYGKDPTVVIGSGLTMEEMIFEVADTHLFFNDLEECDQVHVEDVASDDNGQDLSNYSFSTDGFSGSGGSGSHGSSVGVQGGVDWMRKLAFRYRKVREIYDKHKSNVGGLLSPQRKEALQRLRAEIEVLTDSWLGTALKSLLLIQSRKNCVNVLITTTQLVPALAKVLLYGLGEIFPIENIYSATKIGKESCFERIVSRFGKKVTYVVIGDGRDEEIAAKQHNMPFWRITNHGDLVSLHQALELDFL
Set-up: method as in PMID 22545090. To be noted: recombinant EYA3, substrate pNPP; reported previously; read-out: IC50 (95% confidence intervals), pNPP hydrolysis by EYA3; cited from earlier work.

Consider `CCCCc1oc2ccccc2c1C(=O)c1ccc(O)cc1` [Compound 1b], for which the pIC50 was 5.01.

Usually pIC50 stands for the IC50 on a negative log10 scale, so that one unit is a factor of ten.
